Reference: ChEMBL document CHEMBL1152554, “Synthesis and pharmacological evaluation of 6-naltrexamine analogs for alcohol cessation” (Bioorg Med Chem, 2009)

Amino acid sequences for entries named in this document (tags omitted). A change or cut given only in a name is not applied to a line headed by its entry.
UniProt P41145: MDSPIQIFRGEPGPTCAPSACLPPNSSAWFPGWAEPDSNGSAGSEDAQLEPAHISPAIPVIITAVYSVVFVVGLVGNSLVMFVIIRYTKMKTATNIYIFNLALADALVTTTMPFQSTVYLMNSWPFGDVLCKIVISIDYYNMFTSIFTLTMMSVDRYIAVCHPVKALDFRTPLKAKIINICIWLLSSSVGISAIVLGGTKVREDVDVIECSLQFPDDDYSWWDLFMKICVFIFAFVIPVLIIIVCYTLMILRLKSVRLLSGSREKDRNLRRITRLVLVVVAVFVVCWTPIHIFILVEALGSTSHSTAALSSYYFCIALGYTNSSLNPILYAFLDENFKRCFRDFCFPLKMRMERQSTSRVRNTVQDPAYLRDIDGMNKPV
UniProt P41143, whole entry: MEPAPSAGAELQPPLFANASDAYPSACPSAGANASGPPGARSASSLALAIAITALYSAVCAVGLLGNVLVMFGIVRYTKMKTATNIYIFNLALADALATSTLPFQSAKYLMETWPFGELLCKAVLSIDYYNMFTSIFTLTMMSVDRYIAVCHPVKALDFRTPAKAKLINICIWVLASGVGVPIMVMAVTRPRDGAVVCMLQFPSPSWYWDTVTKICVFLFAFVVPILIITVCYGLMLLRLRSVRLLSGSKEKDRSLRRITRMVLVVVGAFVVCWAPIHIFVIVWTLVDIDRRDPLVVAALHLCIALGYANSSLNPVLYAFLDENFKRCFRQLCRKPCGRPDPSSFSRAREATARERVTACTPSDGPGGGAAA

How the values were obtained:
Liver microsomes = conditions: human
[1] = target: Kappa-type opioid receptor (Homo sapiens, UniProt P41145)
[2] = target: Delta-type opioid receptor (Homo sapiens, UniProt P41143)

`O=C(N[C@@H]1CC[C@@]2(O)[C@H]3Cc4ccc(O)c5c4[C@@]2(CCN3CC2CC2)[C@H]1O5)c1ccc(Cl)c(Cl)c1.O=C(O)C(=O)O` gave a t1/2 (Liver microsomes) of 5.02 h.
With `O=C(N[C@@H]1CC[C@@]2(O)[C@H]3Cc4ccc(O)c5c4[C@@]2(CCN3CC2CC2)[C@H]1O5)c1ccc(Br)cc1.O=C(O)C(=O)O` the EC50 [1] was > 10 µM and the EC50 [2] was 0.066 µM.
`O=C(N[C@@H]1CC[C@@]2(O)[C@H]3Cc4ccc(O)c5c4[C@@]2(CCN3CC2CC2)[C@H]1O5)c1ccc(Cl)cc1` was tested, and the EC50 [2] was > 10 µM.
